The source of these data is PMC5226997 (European Journal of Clinical Pharmacology, 2016).

This data set can be described thus: Study A: plasma pharmacokinetics of single-dose selumetinib 25 mg alone or co-dosed with itraconazole or fluconazole.
Where [1] appears, read: co-dosed with itraconazole vs selumetinib alone.

SMILES strings stand for the structures.

Regarding `Cn1cnc2c(F)c(Nc3ccc(Br)cc3Cl)c(C(=O)NOCCO)cc21` [Selumetinib], the “effect on median t max” value (co-dosed with fluconazole vs selumetinib alone) is “did not impact”. Under setting [1], the “apparent systemic clearance (CL/F) decreased by” value is recorded as “approximately one third” and the “effect on median t max” value is “did not influence”.
